This passage reports Kp results from ChEMBL document CHEMBL1138974 (Bioorg Med Chem Lett, 2006).

Each structure is given as a SMILES string.

The series is filed under the species Mus musculus. As to the kind of experiment: Ratio of drug level in brain against plasma in mouse. As to conditions: read-out: BPR.

As to `O=C1NC[C@@H](c2ccccc2)C12CCN(C1CCCCC1c1ccccc1)CC2` (stereo in doubt; 27), the Kp came to 4.1.
